# Curated experimental data: properties

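OPERA's authors assembled the values from existing databases and did not measure them anew. A listed value is a point estimate from one report or more. Conditions of the individual experiments are not part of the data. The measured form (salt, isomer or mixture) is not always the one drawn. Some upstream entries may be estimates or bounds without being marked so.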

Melting points are in °C.
The boiling point refers to atmospheric pressure (760 mmHg), by the definition of the set.
logP is the log10 of the octanol-water partition coefficient; higher is more lipophilic.
Water solubility is log10 of mol/L, nominally at 25 °C; higher is more soluble.
Vapor pressure is log10 of mmHg; the set covers 15 to 30 °C, mostly 20 to 25 °C.
Henry's law constant (air-water partitioning) is log10 of atm·m3/mol, nominally at 25 °C.
fu is the fraction unbound in human plasma, from 0 to 1.
Clint is human hepatic intrinsic clearance in µL/min per million cells; 0 means that no clearance was seen.
"n/a" marks a cell with nothing listed here.

- CCCCC(CC)CO[N+](=O)[O-] (stereo not given) [2-Ethylhexyl nitrate]: log Kow 5.24; log solubility -4.147 (log10 mol/L); log vapor pressure -0.694 (log10 mmHg)
- Nc1ccc(Cl)cc1O [Phenol, 2-amino-5-chloro-]: melting point 153 °C; log solubility -2.391 (log10 mol/L); log vapor pressure -4.824 (log10 mmHg)
- CC(Cc1ccc(C(C)(C)C)cc1)CN1CCCCC1 (stereo not given) [Fenpropidin]: log solubility -2.71 (log10 mol/L); log Henry constant -3.976 (log10 atm·m3/mol)
- CC(=O)C1(Cl)CC1 [Ethanone, 1-(1-chlorocyclopropyl)-]: melting point -30.3 °C; log Kow 1.3; log vapor pressure 1.195 (log10 mmHg)
- CNC(=O)ON=C(SC)C(=O)N(C)C [Oxamyl]: fraction unbound 0.7924; Clint 0 µL/min/10^6 cells
- ClC1=C(Cl)C2(Cl)C3C(Cl)C=CC3C1(Cl)C2(Cl)Cl (stereo not given) [Heptachlor]: fraction unbound 0.04333; Clint 4.574 µL/min/10^6 cells
- c1ccc(-c2ncc[nH]2)cc1 [1H-Imidazole, 2-phenyl-]: log solubility -1.889 (log10 mol/L); log vapor pressure -4.154 (log10 mmHg)
- CC(C)(C)CC(C)(C)c1ccc(O)cc1 [4-(1,1,3,3-Tetramethylbutyl)phenol]: log Kow 4.46; log solubility -4.469 (log10 mol/L); fraction unbound 0.01903
- CC(C)(C)CC(C)(C)c1cc(-n2nc3ccccc3n2)c(O)c(C(C)(C)c2ccccc2)c1: boiling point 440 °C; log solubility -6.806 (log10 mol/L); log vapor pressure -8.518 (log10 mmHg)
- Brc1ccc(Oc2ccccc2)c(Br)c1 [2,4-Dibromo-1-phenoxybenzene]: melting point 20 °C; log vapor pressure -3.898 (log10 mmHg)
- C#CC(C)(C)NC(=O)c1cc(Cl)cc(Cl)c1 [Propyzamide]: fraction unbound 0.06826; Clint 5.4 µL/min/10^6 cells
- C[C@@H]1[C@@H](c2ccc(Cl)cc2)SC(=O)N1C(=O)NC1CCCCC1 [Hexythiazox]: boiling point 222 °C; Clint 110.4 µL/min/10^6 cells
- CC(C)(c1ccc(OCC2CO2)cc1)c1ccc(OCC2CO2)cc1 (stereo not given) [Bisphenol A diglycidyl ether]: log Kow 3.209; log vapor pressure -9.294 (log10 mmHg)
- Oc1ccc(C(c2ccc(O)cc2)(C(F)(F)F)C(F)(F)F)cc1 [Bisphenol af]: fraction unbound 0.00685; Clint 125 µL/min/10^6 cells
- OC(Cc1ccccc1Cl)(Cn1nc[nH]c1=S)C1(Cl)CC1 (stereo not given) [Prothioconazole]: log Kow 4.05; log solubility -3.06 (log10 mol/L)
- COP(=S)(OC)Oc1ccc(S(=O)(=O)N(C)C)cc1 [Famphur]: log solubility -3.51 (log10 mol/L); log vapor pressure -5.866 (log10 mmHg); log Henry constant -7.794 (log10 atm·m3/mol)
- CNC1CCCCC1 [N-Methylcyclohexanamine]: log vapor pressure 0.574 (log10 mmHg); log Henry constant -8.934 (log10 atm·m3/mol)
- CCOC(=O)c1ccccc1S(=O)(=O)NC(=O)Nc1nc(Cl)cc(OC)n1 [Chlorimuron-ethyl]: log solubility -2.541 (log10 mol/L); log vapor pressure -11.4 (log10 mmHg)
- CCC1(C(=O)NC(C)c2ccc(Cl)cc2)C(C)C1(Cl)Cl (stereo not given) [Carpropamid]: log solubility -5.27 (log10 mol/L); log vapor pressure -7.726 (log10 mmHg); log Henry constant -8.353 (log10 atm·m3/mol)
- O=P(Oc1ccccc1)(Oc1ccccc1)Oc1cccc(OP(=O)(Oc2ccccc2)Oc2ccccc2)c1 [Tetraphenyl m-phenylene bis(phosphate)]: melting point -13 °C; log Kow 4.93
- CC(C)(C)OOC(C)(C)CCC(C)(C)OOC(C)(C)C [2,5-Dimethyl-2,5-di-(tert-butylperoxy)hexane]: log Kow 7.34; log vapor pressure -4.882 (log10 mmHg)
- N#C/C=C/c1ccccc1 [(2E)-3-Phenylprop-2-enenitrile]: log solubility -2.083 (log10 mol/L); log vapor pressure -2.046 (log10 mmHg)
- CCOP(=S)(OCC)Oc1nc(Cl)n(C(C)C)n1 [Isazofos]: fraction unbound 0.0659; Clint 19.53 µL/min/10^6 cells
- Cc1c(C(=O)c2cnn(C)c2O)ccc(S(C)(=O)=O)c1C1=NOCC1 [Topramezone]: melting point 222 °C; log solubility -0.561 (log10 mol/L)
- O=S(=O)([O-])C(F)(F)C(F)(F)C(F)(F)C(F)(F)C(F)(F)C(F)(F)F.[K+] [Potassium perfluorohexanesulfonate]: fraction unbound 0.001342; Clint 0 µL/min/10^6 cells
- CCOC(=O)c1cn2nc(OP(=S)(OCC)OCC)cc2nc1C [Pyrazophos]: log vapor pressure -5.783 (log10 mmHg); log Henry constant -8.594 (log10 atm·m3/mol)

Excerpt, the opening 2 entries:

| structure (SMILES) | name | melting point (°C) | boiling point (°C) | log Kow | log solubility (log10 mol/L) | log vapor pressure (log10 mmHg) | log Henry constant (log10 atm·m3/mol) | fraction unbound | Clint (µL/min/10^6 cells) |
|---|---|---|---|---|---|---|---|---|---|
| CCCCC(CC)CO[N+](=O)[O-] (stereo not given) | 2-Ethylhexyl nitrate | n/a | n/a | 5.24 | -4.147 | -0.694 | n/a | n/a | n/a |
| Nc1ccc(Cl)cc1O | Phenol, 2-amino-5-chloro- | 153 | n/a | n/a | -2.391 | -4.824 | n/a | n/a | n/a |

From the experimental data distributed with OPERA 2.9.